Values quoted from earlier work as cited in article PMC4188605, “Biochemical and Pharmacological Characterization of the Human Lymphocyte Antigen B-Associated Transcript 5 (BAT5/ABHD16A)” (PLoS ONE, 2014).

Target: T1, hABHD6 (Homo sapiens, UniProt Q9BV23)
T1 construct: expressed in transfected cells; host or cells: HEK293
T1 sequence (Q9BV23 1-337): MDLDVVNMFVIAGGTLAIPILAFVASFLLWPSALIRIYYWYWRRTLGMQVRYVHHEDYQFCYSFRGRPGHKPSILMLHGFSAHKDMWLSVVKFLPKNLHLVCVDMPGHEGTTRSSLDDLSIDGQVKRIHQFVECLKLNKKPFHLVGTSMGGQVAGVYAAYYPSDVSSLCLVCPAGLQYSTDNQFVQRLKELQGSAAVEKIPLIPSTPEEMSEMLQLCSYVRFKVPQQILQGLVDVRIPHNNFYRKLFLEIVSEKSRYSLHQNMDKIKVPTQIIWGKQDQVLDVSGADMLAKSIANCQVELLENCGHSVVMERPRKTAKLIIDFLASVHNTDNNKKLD
Set-up: method as in PMID 22969151
Conditions: hABHD6-HEK lysates; cited from earlier work

**Q.** With `CCCCCCCCCCC[C@@H](C[C@@H]1OC(=O)[C@H]1CCCCCC)OC(=O)[C@H](CC(C)C)NC=O` [THL, tetrahydrolipstatin] as the compound, how does the pIC50 read?
**A.** ~7.30

pIC50: −log10 of the molar value.
